Experimental data reported in patent US4866091A, “Alkanesulfonanilide derivatives, processes for preparation thereof and pharmaceutical composition comprising the same” (Fujisawa Pharmaceutical Co., Ltd., priority 1986, dated 1989).

System: adjuvant arthritis in rats
Conditions: orally once a day for 23 days

## CS(=O)(=O)Nc1ccc(C#N)cc1Oc1ccc(F)cc1F.[Na] [Example 73, 4'-cyano-2'-(2,4-difluorophenoxy)methanesulfonanilide sodium salt]
Dose level 0.32 mg/kg
  Inhibition of Secondary Lesion (uninjected paw): 59.0%
Dose level 1.0 mg/kg
  Inhibition of Secondary Lesion (uninjected paw): 81.3%

## COc1ccc2cc([C@H](C)C(=O)O)ccc2c1 [Naproxen, reference compound]
Dose level 0.32 mg/kg
  Inhibition of Secondary Lesion (uninjected paw): 37.0%
Dose level 3.2 mg/kg
  Inhibition of Secondary Lesion (uninjected paw): 67.1%

Where two headings read alike, the source gives them in different places.
